# Source: PubChem BioAssay (Tox21)
# Only a part is listed here, and it is no random draw. Inconclusive results are not listed. Where a call stands in place of a potency, no number is given. The source made the active and inactive calls. The call rests on the fitted dose curve; in most records, active means well fitted cell-killing curve with a large enough effect in the repeat runs; inconclusive means weak or mixed curves, or effect the other way; inactive means no such curve, though single readings can be large or run the other way.
# Assay: qHTS assay to identify small molecule antagonists of the retinoid-related orphan receptor gamma (ROR-gamma) signaling pathway - cell viability counter screen (AID 1159520); further: nearly all actives have a fitted effect of over 50% in size
# Settings: Tet-on RORgamma CHO cells viability, ATP luminescence, 16 h; series mostly up to 92.4 µM
# From the text: U.S. Tox21 Program National Center for Advancing Translational Sciences [NCATS] NIH Chemical Genomics Center [NCGC] U.S. Environmental Protection Agency [EPA] National Institutes of Environmental Health Sciences [NIEHS] National Toxicology Program [NTP] U.S. Food and Drug Administration [FDA] Tox21 Assay Overview: Nuclear steroid hormone receptors are involved in many biological processes including inflammatory responses, cell proliferation, and apoptosis. Environmental factors or compounds disrupting these nuclear receptor pathways and gene expression may promote susceptibility to immunotoxicants and autoimmune diseases. One important group of these expression factors are the retinoid-related orphan receptors. To assess compounds that may interfere with the retinoid-related orphan receptor gamma (ROR-gamma) transcription factor, a cell-based luciferase assay was used. The CHO cell-based assay utilizes a TET-inducible ROR expression factor and ROR response element-LUC reporter gene. Reporter gene activity was induced using Doxycycline Hyclate and measured after 16 hr incubation. Tet-on ROR gamma CHO cells were used to screen against the Tox21 10K compound library for cytotoxicity by measuring the viability of the cells based on the quantitation of the ATP.
# Tox21 Assay Protocol Summary: Tet-on ROR gamma CHO cells were dispensed at 1,000 cells in 4 uL of culture medium per well into white wall/solid bottom 1536-well plates using a Multidrop Combi (Thermo Scientific, Waltham, MA) dispenser. Following incubation at 37 C and 5% CO2 for 4 hr, 23 nL of compounds dissolved in DMSO, positive controls or DMSO only were transferred by a Pintool station (Kalypsys, San Diego, CA) and after 2 hr incubation at 37 C, one ul of 1 uM (final concentration) of Doxycycline Hyclate was added to all the wells by using a Flying Reagent Dispenser (FRD) (Aurora Discovery, San Diego, CA). After 16 hr incubation at 37 C and 5% CO2, 5 uL of CellTiter-Glo reagent (Promega Corporation, Madison, WI) was added to each assay plate using FRD. After 30 min incubation at room temperature, luminescence was quantified on a ViewLux plate reader (Perkin Elmer, Waltham, MA).
# Potency means the concentration at half of the fitted maximal effect.
SMILES,Potency,"activity, negative = cytotoxicity"
CC(C)OP(=S)(OC(C)C)SCCNS(=O)(=O)c1ccccc1,inactive,–
CN(C(=O)Cc1cccc2occc12)[C@H]1CC[C@@]2(CCCO2)C[C@@H]1N1CCCC1,inactive,–
O=[As]c1ccccc1 (stereo not given),active: 344 nM,–
CCC(C)(OOC(C)(C)C)OOC(C)(C)C,–,inactive: -6.7% [at 19 µM]
ClP(Cl)c1ccccc1,inactive,–
NC(=O)Nc1ccc([As](=O)(O)O)cc1,inactive,–
O=C(Cl)OCCOC(=O)Cl,inactive,–
Cc1cc([N+](=O)[O-])c(O)c([N+](=O)[O-])c1,inactive,–
O=[p+]1oc2ccccc2c2ccccc21 (stereo not given),inactive,–
CCOP(=S)(CC)Sc1ccccc1 (stereo not given),inactive,–
O=[P+](Oc1ccccc1)Oc1ccccc1,inactive,–
O=P(Cl)(Oc1ccccc1)Oc1ccccc1,inactive,–
CCCCOP(OCCCC)OCCCC,inactive,–
CCCCO[P+](=O)OCCCC,inactive,–
COC(=O)Cl,inactive,–
CCOC(=O)Cl,inactive,–
CCNC(C)Cc1ccc2c(c1)OCO2 (stereo not given),inactive,–
O=[N+]([O-])c1ccc(S(=O)(=O)O)c([N+](=O)[O-])c1,inactive,–
O=P(Cl)(Cl)c1ccccc1,inactive,–
CN(C(=O)Cc1ccc(Cl)c(Cl)c1)[C@H]1CC[C@@]2(CCCO2)C[C@@H]1N1CCCC1,inactive,–
COP(=S)(Cl)OC,inactive,–
CCCCC(CC)CO[P+](=O)OCC(CC)CCCC (stereo not given),inactive,–
CN(C(=O)Cc1ccccc1)[C@H]1CC[C@@]2(CCCO2)C[C@@H]1N1CCCC1,inactive,–
O=C(Cl)Oc1ccccc1,inactive,–
CC(C)CCCCCCCOP(OCCCCCCCC(C)C)Oc1ccccc1,inactive,–
